From US20230286983A1 (4E Therapeutics, Inc., priority 2020, published 2023)
pIC50: −log10 of the molar value.

The chains behind the UniProt entries cited, without tags or fusion partners. Where a name states a change or a piece, a line headed by the entry shows the natural chain unless it says otherwise.
UniProt Q9HBH9: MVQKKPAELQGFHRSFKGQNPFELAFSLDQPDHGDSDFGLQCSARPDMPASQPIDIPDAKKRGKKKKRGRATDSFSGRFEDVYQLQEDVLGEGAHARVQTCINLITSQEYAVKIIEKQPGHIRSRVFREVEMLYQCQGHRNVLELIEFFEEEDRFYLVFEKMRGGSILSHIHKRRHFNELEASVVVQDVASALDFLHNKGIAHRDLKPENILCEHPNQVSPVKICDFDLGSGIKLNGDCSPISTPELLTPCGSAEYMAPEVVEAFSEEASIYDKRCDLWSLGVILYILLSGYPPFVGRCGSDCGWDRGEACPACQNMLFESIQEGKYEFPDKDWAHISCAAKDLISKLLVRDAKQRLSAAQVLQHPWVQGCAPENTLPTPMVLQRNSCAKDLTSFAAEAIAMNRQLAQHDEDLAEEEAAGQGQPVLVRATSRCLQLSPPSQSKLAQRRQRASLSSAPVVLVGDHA
UniProt Q9BUB5: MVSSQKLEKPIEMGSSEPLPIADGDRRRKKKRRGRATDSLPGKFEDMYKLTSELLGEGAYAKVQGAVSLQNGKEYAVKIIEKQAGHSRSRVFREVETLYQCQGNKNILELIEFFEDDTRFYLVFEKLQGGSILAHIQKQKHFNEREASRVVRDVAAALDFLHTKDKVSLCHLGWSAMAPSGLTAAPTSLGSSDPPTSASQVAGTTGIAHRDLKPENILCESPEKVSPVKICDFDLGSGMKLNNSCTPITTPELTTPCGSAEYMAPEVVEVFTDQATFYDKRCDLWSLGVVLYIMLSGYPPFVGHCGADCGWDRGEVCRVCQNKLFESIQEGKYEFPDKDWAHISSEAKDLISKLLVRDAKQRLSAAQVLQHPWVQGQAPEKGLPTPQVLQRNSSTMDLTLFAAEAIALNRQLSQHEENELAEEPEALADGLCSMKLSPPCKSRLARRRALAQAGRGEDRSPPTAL

Tests used:
[1] = biological target: MNK2 (Homo sapiens, UniProt Q9HBH9); experiment: MNK2 substrate phosphorylation assay; type: biochemical; conditions: recombinant human kinase
[2] = biological target: MNK1 (Homo sapiens, UniProt Q9BUB5); experiment: MNK1 substrate phosphorylation assay; type: biochemical; conditions: recombinant human kinase
[3] = tested on: P-gp (human MDR1, ABCB1); experiment: MDCK-MDR1 permeability (blood brain barrier permeability); type: in vitro ADME, Canine; conditions: dog, MDCK-MDR1, 5 μM; read-out: Efflux ratio (ratio B-A/A-B)
Experimental: In particular, the study was conducted in Madin Darby Canine Kidney (MDCK) cells that express the MDR1 gene (ABCB1) that encodes for the efflux protein, P-gp. MDCK-MDR1 is a stable-transfected cell line originating from MDCK cells, with over-expression of human MDR1 gene. Because MDCK-MDR1 permeability correlates well with brain exposure it is often utilized predictor of blood-brain-barrier penetration.
Apparent permeability (Papp) values are calculated using the following equation: […]
where dQ/dt is the initial rate of amount of test compound transported across cell monolayer, A is the surface area of the filter membrane, and C0 is the initial concentration of the test compound, calculated for each direction using a 4-point calibration curve by LC-MS/MS. Net flux ratio between the two directional transports was calculated by the following equation: […]
where Papp, B−A and Papp, A−B represent the apparent permeability of test compound from the basal to apical and apical to basal side of the cellular monolayer, respectively.

Cc1cc(Nc2cc(NC(=O)C3CC3)ncn2)c(=O)n2c1C(=O)NC21CCCC1 [Compound 4ET-03-017, N-(6-((8′-Methyl-1′,5′-dioxo-1′,5′-dihydro-2′H-spiro[cyclopentane-1,3′-imidazo[1,5-a]pyridin]-6′-yl)amino)pyrimidin-4-yl)cyclopropanecarboxamide]
pIC50 [1]: 8.52
pIC50 [2]: 7.13
efflux ratio at 5 μM [3]: 3.6
